RXFP1 antag = blocks the human relaxin receptor RXFP1; activity change, negative = inhibition, % at 57.5 µM; HEK293-RXFP1, relaxin-stimulated cAMP HTRF, 30 min; hits give low values; Q9HBX9; 350,000 compounds, 0.59% hits;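 active = activity change of -60% or lower, but not beyond a set lower limit; inconclusive = change between -60% and -40%, or beyond the set limit; inactive = change above -40%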
RXFP1 ag = agonists of human relaxin receptor RXFP1. 370,000 compounds, 0.3% hits. AID 2676. Potency, µM (top dose mostly 57.5 µM), actives largely listed as activators. Q9HBX9. HEK293T-RXFP1 cAMP TR-FRET, 30 min; response scale: percent of porcine relaxin response, buffer zero; note: nearly all actives have a fitted effect of over 60% in size
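HEK293 cells stably expressing RXFP1, treated 30 min at 37C with compounds plus PDE4 inhibitor Ro 20174; cAMP measured by HTRF TR-FRET. Normalized to buffer and 29 nM porcine relaxin; EC50 by Hill fit.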
miR-21 FLuc = raises the signal of a miR-21 reporter | HeLa miR-21 FLuc reporter, luciferase, 48 h | Potency, µM (doses to about 38.3 µM) | 340,000 tested, under 10 active | AID 2288; active = well fitted rising curve with a large enough effect; inconclusive = small, poorly fitted or top-dose-only effect; inactive = no such curve, though single readings can be large or run the other way;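 note: miR-21 action dims this reporter so a rising signal means less miR-21 action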
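HeLa cells stably expressing CMV-driven firefly luciferase with a downstream miR-21 binding sequence, endogenously expressing miR-21, were treated with titrations (up to about 40uM final) for 48 hours at 37 degree Celsius. Luciferase luminescence was read after lysis.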
IL-2 act = activators of IL-2; IL-2 activation reporter assay, cell-based qHTS; stimulated with anti-CD3/CD4/CD28 beads; in transgenic mouse T cells; activation, % (series mostly up to about 46 µM); 360,000 compounds, 0.065% hits; AID 652025; in the data active = activation above about 50%; inconclusive = mostly about 30% to 49%
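Unstimulated transgenic mouse T cells; 60-min compound exposure; bead-based TCR/CD4/CD28 stimulation; 18 h culture, 37 degrees C; dual fluorescence (EGFP, DsRed) plate cytometry.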
PINK1 expr mod = changes PINK1 expression | PINK1 immunofluorescence, high-content cytometry, 24 h | Potency, µM (titrated, usually from 76.6 µM), most hits filed as activators | 410,000 compounds, 0.2% hits; active = well fitted activation curve with a large enough effect; inconclusive = small, poorly fitted or top-dose-only effect; cell line not stated here; note: nearly all actives have a fitted effect of over 65% in size
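PINK1 protein, normally rapidly degraded, was detected by immunofluorescence after 24 hour compound treatment of a stable cell line. Titration data (5 concentrations) came from laser-scanning cytometry, with CCCP-treated wells as controls.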
TCR activator = T cell receptor activation; primary human leukocytes, anti-CD3, IL-2 HTRF, 48 h; Potency, µM (highest dose often 9.22 µM), usual class: activators; 330,000 tested, under 10 active; AID 504894
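IL-2 produced over 48 hr by a-CD3 bead-stimulated primary human leukocytes exposed to compounds was detected with a homogeneous time-resolved FRET immunoassay, 665nm acceptor signal after 320nm excitation.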
Of the large screens only hits and unclear results are named; the others gave an inactive call. Hits are enriched below; roughly 0.78% of the tested compounds scored in any of these assays. Unless noted, calls come from the whole dose curve; as a rule, active = well fitted curve in the direction sought with a large enough effect; inconclusive = small, poorly fitted or top-dose-only effect, or another doubt; inactive = no such curve, though single readings can be large; an effect the other way counts as inactive or inconclusive.

CNc1cc(Cl)c2nonc2c1[N+](=O)[O-]	RXFP1 antag -81, miR-21 FLuc inconclusive
O=[N+]([O-])c1c(Cl)c(Cl)cc(Cl)c1Cl	none (no result: RXFP1 ag, miR-21 FLuc, IL-2 act, PINK1 expr mod, TCR activator)
C[C@@H]1CC2=CC(=O)CC[C@@H]2[C@H]2CC[C@@]3(C)[C@@H](CC[C@]3(C)O)[C@@H]21	none (no result: RXFP1 ag, miR-21 FLuc, IL-2 act, PINK1 expr mod, TCR activator)
O=c1[nH]c(=S)n(C2CC2)c(O)c1C=NCc1ccc(F)cc1	RXFP1 ag 25µM
Cc1nn(-c2ccccc2)c2c1C(c1ccc(F)cc1F)C(C#N)=C(N)O2 (configuration not stated)	PINK1 expr mod 11µM (no result: TCR activator)
CC(C)=CC1C(C(=O)OCN2C(=O)C3=C(CCCC3)C2=O)C1(C)C (configuration not stated)	RXFP1 antag -95 (no result: RXFP1 ag, miR-21 FLuc, IL-2 act, PINK1 expr mod, TCR activator)
CCOC(=O)C1(CCc2ccccc2)CCN(Cc2cccc3cnccc23)CC1	RXFP1 antag -83, PINK1 expr mod inconclusive
CCc1ccc(CN2CCN(Cc3cc(Br)ccc3O)CC2)cc1	RXFP1 antag inconclusive, PINK1 expr mod 40µM
CCN1CCN(Cc2cc(Br)ccc2O)CC1	none (no result: TCR activator)
COc1cc(CC#N)cc(OC)c1OC	none (no result: RXFP1 ag, miR-21 FLuc, IL-2 act, PINK1 expr mod, TCR activator)
O=C(Cn1c(=S)[nH]c2ccccc2c1=O)N1CCC2(CC1)OCCO2	none
O=C(CCCCCn1c(=S)[nH]c2ccccc2c1=O)N1CCC2(CC1)OCCO2	RXFP1 antag -83
COc1cc(CCN)c(OC)cc1Br	none (no result: RXFP1 ag, miR-21 FLuc, IL-2 act, PINK1 expr mod, TCR activator)
Fc1ccc(Cn2nnnc2CN2CCC(n3nnc4cc(C(F)(F)F)ccc43)CC2)cc1	none
FC(F)(F)c1ccc2c(c1)ncn2C1CCN(Cc2nnnn2C2CCCCC2)CC1	RXFP1 antag -74
Cc1ccc(-n2c(O)c(/C=N/Nc3ccccc3)c(=O)[nH]c2=O)cc1C	RXFP1 antag -70
COC[C@@H](NC(C)=O)C(=O)NCc1ccccc1	none (no result: RXFP1 ag, miR-21 FLuc, IL-2 act, PINK1 expr mod, TCR activator)
CCCCn1c(O)c(/C=N/N2CCOCC2)c(=O)[nH]c1=S	none
CCCCCCn1c(O)c(C=Nc2ccccc2N2CCOCC2)c(=O)[nH]c1=S	IL-2 act 59, PINK1 expr mod inconclusive
CC(C(=O)c1ccccc1)N(C)C (configuration not stated)	none (no result: RXFP1 ag, miR-21 FLuc, IL-2 act, PINK1 expr mod, TCR activator)
Nc1ccc2c3c(cccc13)-c1ccccc1-2	PINK1 expr mod 11µM (no result: RXFP1 ag, miR-21 FLuc)
Oc1c(Cl)cc(Cl)cc1CN1CCN(Cc2ccccc2)CC1	PINK1 expr mod inconclusive (no result: TCR activator)
Oc1c(Cl)cccc1Cc1cc(Cl)cc(Cl)c1O	RXFP1 antag -110, PINK1 expr mod inconclusive (no result: RXFP1 ag, miR-21 FLuc)
CN(C)c1ccc(/C=C/[N+](=O)[O-])cc1	IL-2 act 97
CCC(=O)O[C@@H]1C=C2CCC3C(CCC4(C)C3CC[C@@H]4OC(=O)CC)C2CC1 (some centres not stated)	none (no result: RXFP1 ag, miR-21 FLuc, IL-2 act, PINK1 expr mod, TCR activator)
C[C@H]1[C@@H]2Cc3ccc(O)cc3[C@]1(C)CCN2C	none (no result: RXFP1 ag, miR-21 FLuc, IL-2 act, PINK1 expr mod, TCR activator)
CCN(CC)c1ccc(N=Cc2c(O)n(Cc3ccco3)c(=O)[nH]c2=O)cc1	IL-2 act 84
NC(=O)c1ccc(N=Cc2c(O)n(Cc3ccco3)c(=O)[nH]c2=O)cc1	none
